Measured values: ChEMBL document CHEMBL5375948, “Development and Pharmacochemical Characterization Discover a Novel Brain-Permeable HDAC11-Selective Inhibitor with Therapeutic Potential by Regulating Neuroinflammation in Mice” (J Med Chem, 2023)
Activity calls are given as the source filed them. The rule behind the calls is not given here.

By UniProt entry, the sequences of proteins in these tests, tags left out. Where a name states a change or a piece, a line headed by the entry shows the natural chain unless it says otherwise.
UniProt Q99720, whole entry: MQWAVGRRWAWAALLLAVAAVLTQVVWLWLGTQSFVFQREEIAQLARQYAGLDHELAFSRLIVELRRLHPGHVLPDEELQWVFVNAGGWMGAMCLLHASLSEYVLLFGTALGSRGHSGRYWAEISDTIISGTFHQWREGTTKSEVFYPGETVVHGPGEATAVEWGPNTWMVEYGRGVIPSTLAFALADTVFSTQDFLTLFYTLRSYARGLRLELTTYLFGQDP
UniProt Q01959, whole entry: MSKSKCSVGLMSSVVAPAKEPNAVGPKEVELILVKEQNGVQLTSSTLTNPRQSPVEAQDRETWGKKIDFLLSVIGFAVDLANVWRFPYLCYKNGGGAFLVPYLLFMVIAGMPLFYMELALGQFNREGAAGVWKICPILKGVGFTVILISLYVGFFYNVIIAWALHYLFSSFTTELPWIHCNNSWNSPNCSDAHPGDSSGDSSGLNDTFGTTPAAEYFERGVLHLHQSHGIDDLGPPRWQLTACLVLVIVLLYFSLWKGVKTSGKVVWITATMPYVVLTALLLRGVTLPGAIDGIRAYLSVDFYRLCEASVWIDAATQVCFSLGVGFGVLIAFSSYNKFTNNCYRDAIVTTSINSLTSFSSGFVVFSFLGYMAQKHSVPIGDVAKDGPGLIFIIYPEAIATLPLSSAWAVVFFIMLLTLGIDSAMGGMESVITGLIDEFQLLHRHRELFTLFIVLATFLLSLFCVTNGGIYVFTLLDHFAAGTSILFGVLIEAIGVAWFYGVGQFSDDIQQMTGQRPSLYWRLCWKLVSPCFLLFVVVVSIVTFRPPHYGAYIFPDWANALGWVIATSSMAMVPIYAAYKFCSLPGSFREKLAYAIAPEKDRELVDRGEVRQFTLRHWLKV
UniProt Q5BJF2, whole entry: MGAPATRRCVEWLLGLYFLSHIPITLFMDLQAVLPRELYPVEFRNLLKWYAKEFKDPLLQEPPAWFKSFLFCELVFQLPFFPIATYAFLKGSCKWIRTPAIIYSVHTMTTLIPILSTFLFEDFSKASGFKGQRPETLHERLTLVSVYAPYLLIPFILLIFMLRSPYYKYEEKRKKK
UniProt P47898, whole entry: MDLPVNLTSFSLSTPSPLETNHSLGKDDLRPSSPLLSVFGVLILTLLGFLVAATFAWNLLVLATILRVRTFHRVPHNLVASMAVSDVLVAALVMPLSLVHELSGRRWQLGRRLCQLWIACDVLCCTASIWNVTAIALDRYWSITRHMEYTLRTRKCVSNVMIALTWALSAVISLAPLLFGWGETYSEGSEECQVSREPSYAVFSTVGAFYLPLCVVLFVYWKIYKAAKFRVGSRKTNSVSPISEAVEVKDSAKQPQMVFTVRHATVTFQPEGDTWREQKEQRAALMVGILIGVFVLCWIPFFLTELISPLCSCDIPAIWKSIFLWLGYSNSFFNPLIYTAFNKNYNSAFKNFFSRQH
UniProt P28335: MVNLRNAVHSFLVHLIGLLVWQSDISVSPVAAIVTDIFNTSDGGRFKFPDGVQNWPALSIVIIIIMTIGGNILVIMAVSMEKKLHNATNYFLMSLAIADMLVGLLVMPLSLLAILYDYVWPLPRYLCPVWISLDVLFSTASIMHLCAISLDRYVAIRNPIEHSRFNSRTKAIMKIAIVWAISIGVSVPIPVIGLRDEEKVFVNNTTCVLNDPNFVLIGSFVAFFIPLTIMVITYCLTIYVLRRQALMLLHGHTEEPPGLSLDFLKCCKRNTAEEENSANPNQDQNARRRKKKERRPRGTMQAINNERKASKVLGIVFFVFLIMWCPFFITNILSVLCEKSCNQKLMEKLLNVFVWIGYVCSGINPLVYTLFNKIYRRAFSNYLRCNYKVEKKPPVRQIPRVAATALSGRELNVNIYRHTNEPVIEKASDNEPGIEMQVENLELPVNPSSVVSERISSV
UniProt P41145: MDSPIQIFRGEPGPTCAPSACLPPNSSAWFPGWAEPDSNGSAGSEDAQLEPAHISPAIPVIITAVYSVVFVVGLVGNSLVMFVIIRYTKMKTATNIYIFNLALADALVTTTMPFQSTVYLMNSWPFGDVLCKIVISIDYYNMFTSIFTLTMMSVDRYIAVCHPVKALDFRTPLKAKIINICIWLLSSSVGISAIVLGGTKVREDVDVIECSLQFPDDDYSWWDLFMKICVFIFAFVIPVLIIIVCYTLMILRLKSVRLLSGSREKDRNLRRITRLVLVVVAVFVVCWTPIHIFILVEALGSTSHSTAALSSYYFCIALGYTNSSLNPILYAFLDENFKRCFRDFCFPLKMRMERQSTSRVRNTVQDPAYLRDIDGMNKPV
UniProt P28221: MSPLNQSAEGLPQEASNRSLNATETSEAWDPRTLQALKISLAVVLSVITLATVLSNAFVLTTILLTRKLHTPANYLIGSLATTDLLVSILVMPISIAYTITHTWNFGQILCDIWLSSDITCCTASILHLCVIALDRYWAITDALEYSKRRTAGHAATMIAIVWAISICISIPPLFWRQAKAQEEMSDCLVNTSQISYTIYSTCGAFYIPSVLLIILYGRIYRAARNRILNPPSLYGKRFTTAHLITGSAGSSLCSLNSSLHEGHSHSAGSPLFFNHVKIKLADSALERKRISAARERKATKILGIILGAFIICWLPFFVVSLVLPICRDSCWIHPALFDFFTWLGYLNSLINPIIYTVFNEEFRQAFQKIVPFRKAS
UniProt P21728, whole entry: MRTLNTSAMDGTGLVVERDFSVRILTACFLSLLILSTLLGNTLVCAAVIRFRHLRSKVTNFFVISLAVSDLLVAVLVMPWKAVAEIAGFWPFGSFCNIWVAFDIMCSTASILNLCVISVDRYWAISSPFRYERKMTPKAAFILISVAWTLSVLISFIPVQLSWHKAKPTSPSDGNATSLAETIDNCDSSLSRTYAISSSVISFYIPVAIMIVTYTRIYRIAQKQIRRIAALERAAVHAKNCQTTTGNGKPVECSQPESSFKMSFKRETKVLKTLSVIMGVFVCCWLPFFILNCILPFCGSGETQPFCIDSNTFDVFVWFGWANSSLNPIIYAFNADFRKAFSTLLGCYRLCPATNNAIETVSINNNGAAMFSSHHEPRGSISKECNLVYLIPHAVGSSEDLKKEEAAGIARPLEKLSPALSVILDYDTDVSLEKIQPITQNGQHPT
UniProt P41143, whole entry: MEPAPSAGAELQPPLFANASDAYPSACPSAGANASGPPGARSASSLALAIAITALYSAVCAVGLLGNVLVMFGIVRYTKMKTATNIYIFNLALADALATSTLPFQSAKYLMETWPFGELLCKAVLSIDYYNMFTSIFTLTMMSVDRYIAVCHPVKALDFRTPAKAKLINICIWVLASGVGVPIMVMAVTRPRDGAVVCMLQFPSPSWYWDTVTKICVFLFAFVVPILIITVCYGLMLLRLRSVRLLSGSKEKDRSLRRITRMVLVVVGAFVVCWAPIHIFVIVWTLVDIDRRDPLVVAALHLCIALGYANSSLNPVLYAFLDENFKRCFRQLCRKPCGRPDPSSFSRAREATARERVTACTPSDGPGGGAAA
UniProt P21917, whole entry: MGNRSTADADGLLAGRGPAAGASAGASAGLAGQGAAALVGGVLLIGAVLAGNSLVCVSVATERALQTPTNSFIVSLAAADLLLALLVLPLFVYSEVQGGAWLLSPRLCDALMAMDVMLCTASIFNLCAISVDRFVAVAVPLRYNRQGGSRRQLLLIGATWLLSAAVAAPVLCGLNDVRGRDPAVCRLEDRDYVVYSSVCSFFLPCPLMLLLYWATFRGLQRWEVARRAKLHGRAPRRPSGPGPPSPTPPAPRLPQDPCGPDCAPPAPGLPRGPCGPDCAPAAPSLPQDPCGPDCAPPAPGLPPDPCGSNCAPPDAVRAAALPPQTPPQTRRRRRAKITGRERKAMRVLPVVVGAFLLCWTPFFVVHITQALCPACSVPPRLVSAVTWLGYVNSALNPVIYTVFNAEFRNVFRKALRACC
UniProt P41595, whole entry: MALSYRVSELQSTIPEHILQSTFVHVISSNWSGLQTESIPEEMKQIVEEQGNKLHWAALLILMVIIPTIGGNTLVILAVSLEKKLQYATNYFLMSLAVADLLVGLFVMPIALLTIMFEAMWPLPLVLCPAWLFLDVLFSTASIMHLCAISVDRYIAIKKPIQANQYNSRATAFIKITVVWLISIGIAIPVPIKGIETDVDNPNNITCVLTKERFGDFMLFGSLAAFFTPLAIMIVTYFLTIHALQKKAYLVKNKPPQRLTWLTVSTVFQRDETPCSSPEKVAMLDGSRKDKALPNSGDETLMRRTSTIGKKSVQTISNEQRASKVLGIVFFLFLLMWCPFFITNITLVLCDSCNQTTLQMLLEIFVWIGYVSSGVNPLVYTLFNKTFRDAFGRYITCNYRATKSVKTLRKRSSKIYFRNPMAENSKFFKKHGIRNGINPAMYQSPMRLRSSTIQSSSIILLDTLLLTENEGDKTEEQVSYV
UniProt P08908, whole entry: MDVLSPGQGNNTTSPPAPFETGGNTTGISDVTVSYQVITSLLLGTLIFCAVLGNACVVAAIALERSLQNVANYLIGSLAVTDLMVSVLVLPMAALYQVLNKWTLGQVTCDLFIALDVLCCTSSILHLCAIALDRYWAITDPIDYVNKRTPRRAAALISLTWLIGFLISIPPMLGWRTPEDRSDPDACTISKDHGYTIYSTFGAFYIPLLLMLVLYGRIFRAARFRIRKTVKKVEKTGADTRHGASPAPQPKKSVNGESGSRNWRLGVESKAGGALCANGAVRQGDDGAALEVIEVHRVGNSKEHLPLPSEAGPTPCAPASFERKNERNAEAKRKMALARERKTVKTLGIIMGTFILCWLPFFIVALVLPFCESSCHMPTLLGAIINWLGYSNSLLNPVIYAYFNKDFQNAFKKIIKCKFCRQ
UniProt P28223, whole entry: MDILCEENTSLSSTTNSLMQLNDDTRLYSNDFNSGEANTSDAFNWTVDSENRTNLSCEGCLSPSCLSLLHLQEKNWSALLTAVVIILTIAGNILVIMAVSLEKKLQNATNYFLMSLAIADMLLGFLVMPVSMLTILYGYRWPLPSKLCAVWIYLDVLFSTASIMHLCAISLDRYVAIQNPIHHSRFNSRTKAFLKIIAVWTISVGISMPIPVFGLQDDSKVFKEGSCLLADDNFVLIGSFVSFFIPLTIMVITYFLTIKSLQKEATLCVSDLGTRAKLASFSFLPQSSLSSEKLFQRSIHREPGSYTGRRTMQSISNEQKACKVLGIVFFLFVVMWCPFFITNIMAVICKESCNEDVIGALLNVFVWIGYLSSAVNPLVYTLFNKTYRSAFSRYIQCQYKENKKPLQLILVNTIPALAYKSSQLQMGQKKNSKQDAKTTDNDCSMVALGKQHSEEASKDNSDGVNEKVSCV
UniProt P14416, whole entry: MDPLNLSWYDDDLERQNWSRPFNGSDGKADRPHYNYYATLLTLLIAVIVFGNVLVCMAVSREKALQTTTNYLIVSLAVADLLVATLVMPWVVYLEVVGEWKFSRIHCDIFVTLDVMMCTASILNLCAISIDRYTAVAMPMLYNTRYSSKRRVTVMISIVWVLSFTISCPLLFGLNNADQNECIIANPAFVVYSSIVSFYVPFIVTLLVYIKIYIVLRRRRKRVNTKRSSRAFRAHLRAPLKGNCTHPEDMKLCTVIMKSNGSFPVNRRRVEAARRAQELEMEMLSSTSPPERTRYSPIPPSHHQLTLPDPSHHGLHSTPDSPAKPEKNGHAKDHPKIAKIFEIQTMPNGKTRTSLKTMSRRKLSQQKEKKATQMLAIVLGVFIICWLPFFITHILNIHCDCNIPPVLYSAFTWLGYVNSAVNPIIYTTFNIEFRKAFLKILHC
UniProt P35368, whole entry: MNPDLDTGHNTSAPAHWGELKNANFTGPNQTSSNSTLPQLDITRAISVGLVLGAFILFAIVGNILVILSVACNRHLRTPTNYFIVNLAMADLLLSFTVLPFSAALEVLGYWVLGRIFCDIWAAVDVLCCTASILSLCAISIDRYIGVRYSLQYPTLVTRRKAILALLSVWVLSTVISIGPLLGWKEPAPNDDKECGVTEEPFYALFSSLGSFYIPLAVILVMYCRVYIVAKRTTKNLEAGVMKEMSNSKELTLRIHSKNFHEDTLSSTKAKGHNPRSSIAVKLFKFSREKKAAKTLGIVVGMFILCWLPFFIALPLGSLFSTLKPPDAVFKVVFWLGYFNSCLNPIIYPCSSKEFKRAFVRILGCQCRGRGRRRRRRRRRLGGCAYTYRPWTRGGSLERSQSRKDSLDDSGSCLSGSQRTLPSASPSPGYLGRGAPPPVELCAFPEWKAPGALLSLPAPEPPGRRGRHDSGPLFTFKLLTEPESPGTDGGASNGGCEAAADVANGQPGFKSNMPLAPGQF
UniProt P35372, whole entry: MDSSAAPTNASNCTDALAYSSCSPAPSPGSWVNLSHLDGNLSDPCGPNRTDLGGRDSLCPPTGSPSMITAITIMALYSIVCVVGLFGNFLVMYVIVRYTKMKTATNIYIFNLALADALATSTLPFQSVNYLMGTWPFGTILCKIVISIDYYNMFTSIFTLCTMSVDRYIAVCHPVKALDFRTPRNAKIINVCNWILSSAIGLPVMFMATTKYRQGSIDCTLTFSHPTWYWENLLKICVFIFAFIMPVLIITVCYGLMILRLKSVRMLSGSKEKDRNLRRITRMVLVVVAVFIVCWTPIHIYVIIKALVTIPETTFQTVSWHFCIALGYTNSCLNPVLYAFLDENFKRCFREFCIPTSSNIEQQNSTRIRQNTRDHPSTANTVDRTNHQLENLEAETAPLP

Key:
[1] = molecular target: Sigma non-opioid intracellular receptor 1 (Homo sapiens) (UniProt Q99720); assay: Binding affinity to Sigma 1 receptor (unknown origin) at 10 uM
[2] = molecular target: Sodium-dependent dopamine transporter (Homo sapiens) (UniProt Q01959); assay: Binding affinity to DAT (unknown origin) at 10 uM
[3] = molecular target: Muscarinic acetylcholine receptor M3 (Homo sapiens) (UniProt P20309); assay: Binding affinity to M3 receptor (unknown origin) at 10 uM
[4] = molecular target: Sigma intracellular receptor 2 (Homo sapiens) (UniProt Q5BJF2); assay: Binding affinity to Sigma 2 receptor (unknown origin) at 10 uM
[5] = molecular target: 5-hydroxytryptamine receptor 5A (Homo sapiens) (UniProt P47898); assay: Binding affinity to 5-HT5A (unknown origin) at 10 uM
[6] = molecular target: 5-hydroxytryptamine receptor 2C (Homo sapiens) (UniProt P28335); assay: Binding affinity to 5-HT2C (unknown origin) at 10 uM
[7] = molecular target: Kappa-type opioid receptor (Homo sapiens) (UniProt P41145); assay: Binding affinity to KOR (unknown origin) at 10 uM
[8] = molecular target: 5-hydroxytryptamine receptor 1D (Homo sapiens) (UniProt P28221); assay: Binding affinity to 5-HT1D (unknown origin) at 10 uM
[9] = molecular target: D(1A) dopamine receptor (Homo sapiens) (UniProt P21728); assay: Binding affinity to D1 receptor (unknown origin) at 10 uM
[10] = molecular target: Delta-type opioid receptor (Homo sapiens) (UniProt P41143); assay: Binding affinity to DOR (unknown origin) at 10 uM
[11] = molecular target: D(4) dopamine receptor (Homo sapiens) (UniProt P21917); assay: Binding affinity to D4 receptor (unknown origin) at 10 uM
[12] = molecular target: 5-hydroxytryptamine receptor 2B (Homo sapiens) (UniProt P41595); assay: Binding affinity to 5-HT2B (unknown origin) at 10 uM
[13] = molecular target: 5-hydroxytryptamine receptor 1A (Homo sapiens) (UniProt P08908); assay: Binding affinity to 5-HT1A (unknown origin) at 10 uM
[14] = molecular target: 5-hydroxytryptamine receptor 2A (Homo sapiens) (UniProt P28223); assay: Binding affinity to 5-HT2A (unknown origin) at 10 uM
[15] = molecular target: D(2) dopamine receptor (Homo sapiens) (UniProt P14416); assay: Binding affinity to D2 receptor (unknown origin) at 10 uM
[16] = molecular target: T1, Alpha-1A adrenergic receptor (Homo sapiens) (UniProt P35348); assay: Binding affinity to alpha-1A adrenergic receptor (unknown origin) at 10 uM
T1 sequence (whole entry): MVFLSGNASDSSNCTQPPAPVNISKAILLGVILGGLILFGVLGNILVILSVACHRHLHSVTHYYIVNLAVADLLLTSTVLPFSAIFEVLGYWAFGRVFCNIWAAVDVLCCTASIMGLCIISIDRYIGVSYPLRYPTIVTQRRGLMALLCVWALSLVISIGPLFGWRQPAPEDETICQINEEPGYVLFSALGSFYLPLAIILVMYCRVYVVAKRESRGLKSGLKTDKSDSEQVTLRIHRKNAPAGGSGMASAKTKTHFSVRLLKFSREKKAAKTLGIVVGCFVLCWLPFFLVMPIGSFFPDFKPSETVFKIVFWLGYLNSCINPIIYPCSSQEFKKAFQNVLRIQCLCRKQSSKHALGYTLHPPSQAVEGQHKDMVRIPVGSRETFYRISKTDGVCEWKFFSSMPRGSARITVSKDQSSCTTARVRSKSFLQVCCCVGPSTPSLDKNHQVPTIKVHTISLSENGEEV

[17] = molecular target: Alpha-1B adrenergic receptor (Homo sapiens) (UniProt P35368); assay: Binding affinity to alpha-1B adrenergic receptor (unknown origin) at 10 uM
[18] = molecular target: Mu-type opioid receptor (Homo sapiens) (UniProt P35372); assay: Binding affinity to MOR (unknown origin) at 10 uM

- Activity [1]: inactive
- Activity [2]: inactive
- Activity [3]: inactive
- Activity [4]: inactive
- Activity [5]: inactive
- Activity [6]: inactive
- Activity [7]: inactive
- Activity [8]: inactive
- Activity [9]: inactive
- Activity [10]: inactive
- Activity [11]: inactive
- Activity [12]: inactive
- Activity [13]: inactive
- Activity [14]: inactive
- Activity [15]: inactive
- Activity [16]: inactive
- Activity [17]: inactive
- Activity [18]: inactive
Structure (SMILES): COc1cc(Cn2ccc3cc(C(=O)NCC45C[C@H]6C[C@@H](C4)C[C@@H](C5)C6)ccc32)ccc1C(=O)NO
